Among the data in patent publication EP4745153A1, “GLP-1, GIP AND GCG RECEPTOR […] USE THEREOF” (Jiangsu Hengrui Pharmaceuticals Co., Ltd., priority 2023, dated 2025) are EC50 values, retold here.

Chains of the proteins cited; added tags and fusions are not shown. Residues count along the entry.
UniProt P47871, 26-477: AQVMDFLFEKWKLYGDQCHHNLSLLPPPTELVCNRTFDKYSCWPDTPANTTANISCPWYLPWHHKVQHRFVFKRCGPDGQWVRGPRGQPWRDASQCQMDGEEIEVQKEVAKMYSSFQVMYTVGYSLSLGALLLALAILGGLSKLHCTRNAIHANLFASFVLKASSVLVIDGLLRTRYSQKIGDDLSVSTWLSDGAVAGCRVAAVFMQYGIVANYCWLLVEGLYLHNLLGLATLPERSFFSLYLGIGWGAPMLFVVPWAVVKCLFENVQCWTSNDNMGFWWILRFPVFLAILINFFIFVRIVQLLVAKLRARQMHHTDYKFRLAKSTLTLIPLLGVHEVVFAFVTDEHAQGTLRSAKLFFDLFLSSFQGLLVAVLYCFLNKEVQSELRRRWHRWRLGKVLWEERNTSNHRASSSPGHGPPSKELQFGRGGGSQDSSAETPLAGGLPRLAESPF
UniProt P43220, 24-463: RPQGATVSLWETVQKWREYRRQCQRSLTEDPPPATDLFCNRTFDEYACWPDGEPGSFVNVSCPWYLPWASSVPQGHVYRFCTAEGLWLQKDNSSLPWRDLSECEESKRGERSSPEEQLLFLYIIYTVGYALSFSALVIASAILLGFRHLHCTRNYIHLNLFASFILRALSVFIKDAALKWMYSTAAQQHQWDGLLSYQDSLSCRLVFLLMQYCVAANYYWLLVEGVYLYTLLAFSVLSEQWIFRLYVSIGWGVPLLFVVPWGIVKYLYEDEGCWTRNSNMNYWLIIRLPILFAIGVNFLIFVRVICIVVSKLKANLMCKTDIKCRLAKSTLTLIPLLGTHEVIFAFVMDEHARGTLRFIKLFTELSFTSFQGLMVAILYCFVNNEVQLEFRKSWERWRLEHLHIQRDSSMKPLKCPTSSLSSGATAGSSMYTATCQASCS

A word on the EC50: it is the concentration that produces a half-maximal response.

Holding throughout (format): cell-based
One test has as its target T1, human GCGR (Homo sapiens, UniProt P47871).
T1 construct: expressed in transfected cells; host or cells: CHO-K1 clonal cell line
Description: cAMP HTRF agonist activity assay in CHO-K1 cells expressing GCGR. Particulars: read-out: Activity against human GCGR (EC50 nM); CHO-K1 clonal cell line, intracellular cAMP (HTRF), 5% FBS, 0.1% Casein, 37°C 30 min; relative EC50 vs maximum response of human GCG (1-29). The method, then: (§1) Functional activity was determined in CHO-K1 clonal cell lines expressing GIPR, GLP-1R, and GCGR. […] Each recipient cell (5000 cells/well) was added to an SV 96-well plate (Cisbio, 66PL96025) and incubated with the prepared polypeptide at 37°Cfor 30 min. The resulting increase in intracellular cAMP was quantitatively measured using the cAMP-GS dynamic HTRF assay kit (Cisbio, 62AM4PEJ). Briefly, the intracellular cAMP levels were determined by adding cAMP-d2 conjugate in cell lysis buffer, followed by the antibody anti-cAMP-Eu cryptate (also in cell lysis buffer).
(§2) Using the maximum response percentage vs. the added polypeptide concentration, the relative EC50 values were derived through nonlinear regression analysis and fitted to a four-parameter logarithmic equation. For specific data, refer to Tables 7-1 to 7-8 below. […]

In another test the target is T2, human GLP-1R (Homo sapiens, UniProt P43220).
T2 construct: expressed in transfected cells; host or cells: CHO-K1 clonal cell line
The experiment in a line: cAMP HTRF agonist activity assay in CHO-K1 cells expressing GLP-1R. The conditions noted are these: read-out: Activity against human GLP-1R (EC50 nM); CHO-K1 clonal cell line, intracellular cAMP (HTRF), 5% FBS, 0.1% Casein, 37°C 30 min; relative EC50 vs maximum response of human GLP-1(7-36)-NH2. The method, then: as §1, §2
(In TR-FRET formats the signal depends on donor and acceptor labels being close together.)

Another test has as its target T3, human GIPR (Homo sapiens, UniProt P48546).
T3 construct: expressed in transfected cells; host or cells: CHO-K1 clonal cell line
T3 sequence (P48546 22-466): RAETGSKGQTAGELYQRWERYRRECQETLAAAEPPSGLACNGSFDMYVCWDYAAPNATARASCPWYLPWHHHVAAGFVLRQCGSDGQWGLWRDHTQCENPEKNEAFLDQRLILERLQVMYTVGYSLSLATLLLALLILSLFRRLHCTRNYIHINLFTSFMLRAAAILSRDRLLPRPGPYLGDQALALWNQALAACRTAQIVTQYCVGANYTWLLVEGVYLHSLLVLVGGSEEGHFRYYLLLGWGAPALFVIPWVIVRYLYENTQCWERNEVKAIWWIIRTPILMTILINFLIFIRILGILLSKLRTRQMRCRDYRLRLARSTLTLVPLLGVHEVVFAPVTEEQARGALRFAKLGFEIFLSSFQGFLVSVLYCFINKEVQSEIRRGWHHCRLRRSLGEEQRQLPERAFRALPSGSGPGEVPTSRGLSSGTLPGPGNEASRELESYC
Description: cAMP HTRF agonist activity assay in CHO-K1 cells expressing GIPR. Particulars: read-out: Activity against human GIPR (EC50 nM); CHO-K1 clonal cell line, intracellular cAMP (HTRF), 5% FBS, 0.1% Casein, 37°C 30 min; relative EC50 vs maximum response of human GIP(1-42)-NH2. The method, then: as §1, §2

In the case of “H-Aib-HGTFTSDLS-αK-ILE-K(-OEG-OEG-γGlu-C(O)-(CH2)18-COOH)-KAA-Iva-EFVEWLIEGGPSSGAPPPS-NH2 [Compound 0134]”, the EC50 on human GCGR is 0.025 nM; at human GLP-1R it was 0.017 nM; at human GIPR, 0.002 nM.
In the case of “H-Aib-HGTFTSDYS-αK-ILE-K(-OEG-OEG-γGlu-C(O)-(CH2)18-COOH)-KAA-Iva-EFVEWLIEGGPSSGAPPPS-NH2 [Compound 0132]”, the 50% effective concentration (EC50) on human GCGR was 0.03 nM; on human GLP-1R, 0.024 nM; on human GIPR it was 0.001 nM.
As for “H-Aib-HGTFTSDYS-αK-LLE-K(-OEG-OEG-γGlu-C(O)-(CH2)15-COOH)-IAAQEFVEWLLAGGPSSGAPPPS-NH2 [Compound 0118]”, the values for the EC50 on human GLP-1R and on human GIPR were 0.073 nM and 0.004 nM, respectively.
With “H-Aib-HGTFTSDYS-αK-LLE-K(-OEG-OEG-γGlu-C(O)-(CH2)18-COOH)-QAAQEFVEWLLAGGPSSGAPPPS-NH2 [Compound 0117]”, the EC50 is 0.059 nM on human GLP-1R and 0.003 nM on human GIPR.
Consider “H-Aib-HGTFTSDYS-αK-YLE-K(-OEG-OEG-γGlu-C(O)-(CH2)18-COOH)-KAAQEFVEWLIAGGPSSGAPPPS-NH2 [Compound 0111]”, for which the EC50 stood at 0.552 nM on human GCGR, 0.015 nM at human GLP-1R and 0.024 nM on human GIPR.
With “H-Aib-HGTFTSDYSK-αY-LE-K(-OEG-OEG-γGlu-C(O)-(CH2)15-COOH)-KAAQEFVEWLLAGGPSSGAPPPS-NH2 [Compound 0106]”, the EC50 at human GCGR was 0.095 nM; at human GLP-1R, 0.03 nM; on human GIPR, 0.027 nM.
“H-Aib-HGTFTSDYSKY-αL-E-K(-OEG-OEG-γGlu-C(O)-(CH2)18-COOH)-KAAQEFVEWLLAGGPSSGAPPPS-NH2 [Compound 0108]”: the results for the EC50 at human GCGR, on human GLP-1R and on human GIPR were 0.315 nM, 0.014 nM and 0.078 nM, respectively.
As for “H-Aib-HGTFTSDYSKYLE-K(-OEG-OEG-γGlu-C(O)-(CH2)18-COOH)-αK-AAQEFVEWLLAGGPSSGAPPPS-NH2 [Compound 0109]”, the EC50 turned out to be 0.031 nM on human GCGR, 0.011 nM on human GLP-1R and 0.027 nM on human GIPR.
Consider “H-Aib-QGTFTSDYSI-αL-LE-K(-OEG-OEG-γGlu-C(O)-(CH2)18-COOH)-KAAQEFVEWLLAGGPSSGAPPPS-NH2 [Compound 0155]”, for which the figures for the EC50 on human GCGR, on human GLP-1R and at human GIPR were 3.66 nM, 0.036 nM and 0.014 nM, respectively.
With “Y-Aib-QGTFTSDYS-αK-LLE-K(-OEG-OEG-γGlu-C(O)-(CH2)18-COOH)-KAAQEFVEWLLAGGPSSGAPPPS-NH2 [Compound 0114]”, at human GIPR, the EC50 is 0.01 nM.
